According to PMC7140522, “The Pyrazolo[3,4-d]pyrimidine Derivative, SCO-201, Reverses Multidrug Resistance Mediated by ABCG2/BCRP” (Cells, 2020):

Test system: MDCK-II-WT cells
Assay: MDR reversal analysis with MTT assay, MDCK-II-WT
Assay type: cell-based, canine
Settings: Canis lupus familiaris, 72 h drug exposure, read-out: IC50 Value for Each Cell Line: MDCK-II-WT
Experimental: Control conditions consisted of full growth medium. All treatments were performed in triplicate.

CCc1c2c(nc3ccc(O)cc13)-c1cc3c(c(=O)n1C2)COC(=O)[C@]3(O)CC [SN-38, 7-Ethyl-10-hydroxycamptothecin]
IC50: 214 ± 23 nM
